Measured values from patent US5665704A, “Receptor specific atrial natriuretic peptides” (Genentech, Inc., priority 1995, dated 1997).

Protein sequences, listed by entry. Tags and fused reporters are not part of them. Lines headed by an entry give the natural chain unless they say otherwise; changes in a name come on top.
UniProt P08473: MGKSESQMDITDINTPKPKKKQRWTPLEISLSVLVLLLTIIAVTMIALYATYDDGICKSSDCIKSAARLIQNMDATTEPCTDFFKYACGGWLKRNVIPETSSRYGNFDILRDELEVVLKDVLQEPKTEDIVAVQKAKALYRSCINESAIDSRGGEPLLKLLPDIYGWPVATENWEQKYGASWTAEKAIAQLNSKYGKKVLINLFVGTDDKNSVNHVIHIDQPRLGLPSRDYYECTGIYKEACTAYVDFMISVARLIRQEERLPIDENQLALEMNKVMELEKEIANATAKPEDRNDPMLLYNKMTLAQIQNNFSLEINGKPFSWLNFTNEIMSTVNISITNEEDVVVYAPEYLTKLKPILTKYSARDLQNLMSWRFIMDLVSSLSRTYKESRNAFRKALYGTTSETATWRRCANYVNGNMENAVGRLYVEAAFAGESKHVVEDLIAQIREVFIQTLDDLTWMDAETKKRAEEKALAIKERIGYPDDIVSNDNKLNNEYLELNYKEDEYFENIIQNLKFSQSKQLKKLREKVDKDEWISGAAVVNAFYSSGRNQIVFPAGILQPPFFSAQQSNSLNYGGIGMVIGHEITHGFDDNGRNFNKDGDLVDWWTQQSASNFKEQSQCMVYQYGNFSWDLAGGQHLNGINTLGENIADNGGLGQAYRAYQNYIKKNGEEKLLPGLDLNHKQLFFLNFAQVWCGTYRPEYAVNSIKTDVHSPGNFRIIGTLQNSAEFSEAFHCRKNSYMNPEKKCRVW

Target: Human endopeptidase 24.11 (hNEP) (Homo sapiens, UniProt P08473)
Experiment: in vitro
Conditions: isolated enzyme

## CC[C@H](C)[C@@H]1NC(=O)[C@H](CCCN=C(N)N)NC(=O)[C@H](CC(=O)O)NC(=O)[C@H]([C@@H](C)CC)NC(=O)[C@H](CCCN=C(N)N)NC(=O)CNC(=O)CNC(=O)[C@H](Cc2ccccc2)NC(=O)[C@@H](NC(=O)[C@H](CO)NC(=O)[C@H](CO)NC(=O)[C@H](CCCN=C(N)N)NC(=O)[C@H](CCCN=C(N)N)NC(=O)[C@H](CC(C)C)NC(=O)[C@@H](N)CO)CSSC[C@@H](C(=O)N[C@@H](CC(N)=O)C(=O)N[C@@H](CO)C(=O)N[C@@H](Cc2ccccc2)C(=O)N[C@@H](CCCN=C(N)N)C(=O)N[C@@H](Cc2ccc(O)cc2)C(=O)O)NC(=O)CNC(=O)[C@H](CC(C)C)NC(=O)CNC(=O)[C@H](CO)NC(=O)[C@H](CCC(N)=O)NC(=O)[C@H](C)NC(=O)CNC1=O [ANF15, reference compound]
  half-life at 0.5 mg/ml: 2.75 h
